Assay results published in ChEMBL document CHEMBL1156469 (2007).

Columns and labels:
Format in all cases: functional
Osteoblast [1] = assay: Effect on transforming growth factor beta 2 gene expression in rat primary osteoblast cells assessed as expression ratio of treated to untreated control by microarray analysis
Osteoblast [2] = assay: Effect on MAD homolog 9 gene expression in rat primary osteoblast cells assessed as expression ratio of treated to untreated control by microarray analysis
Osteoblast [3] = assay: Effect on ribosomal protein L13a gene expression in rat primary osteoblast cells assessed as expression ratio of treated to untreated control by microarray analysis
Osteoblast [4] = assay: Effect on glyceraldehyde-3-phosphate dehydrogenase gene expression in rat primary osteoblast cells assessed as expression ratio of treated to untreated control by microarray analysis
Osteoblast [5] = assay: Effect on integrin alpha 3 gene expression in rat primary osteoblast cells assessed as expression ratio of treated to untreated control by microarray analysis
Osteoblast [6] = assay: Effect on bone morphogenetic protein receptor 1A gene expression in rat primary osteoblast cells assessed as expression ratio of treated to untreated control by microarray analysis
Osteoblast [7] = assay: Effect on procollagen 19-alpha 1 gene expression in rat primary osteoblast cells assessed as expression ratio of treated to untreated control by microarray analysis
Osteoblast [8] = assay: Effect on procollagen 8 alpha 1 gene expression in rat primary osteoblast cells assessed as expression ratio of treated to untreated control by microarray analysis
Osteoblast [9] = assay: Effect on fibroblast growth factor 3 gene expression in rat primary osteoblast cells assessed as expression ratio of treated to untreated control by microarray analysis
Osteoblast [10] = assay: Effect on bone morphogenetic protein 7 gene expression in rat primary osteoblast cells assessed as expression ratio of treated to untreated control by microarray analysis
Osteoblast [11] = assay: Effect on transforming growth factor beta receptor 2 gene expression in rat primary osteoblast cells assessed as expression ratio of treated to untreated control by microarray analysis
Osteoblast [12] = assay: Effect on procollagen 11alpha 1 gene expression in rat primary osteoblast cells assessed as expression ratio of treated to untreated control by microarray analysis
Osteoblast [13] = assay: Effect on bone morphogenetic protein 4 gene expression in rat primary osteoblast cells assessed as expression ratio of treated to untreated control by microarray analysis
Osteoblast [14] = assay: Effect on integrin alpha M gene expression in rat primary osteoblast cells assessed as expression ratio of treated to untreated control by microarray analysis
Osteoblast [15] = assay: Effect on procollagen 12alpha 1 gene expression in rat primary osteoblast cells assessed as expression ratio of treated to untreated control by microarray analysis
Osteoblast [16] = assay: Effect on procollagen 7 alpha 1 gene expression in rat primary osteoblast cells assessed as expression ratio of treated to untreated control by microarray analysis
Osteoblast [17] = assay: Effect on procollagen 2 alpha 1 gene expression in rat primary osteoblast cells assessed as expression ratio of treated to untreated control by microarray analysis

## Oc1ccc(/C=C/c2cc(O)cc(O)c2)cc1 [RESVERATROL]
Osteoblast [1]
  Ratio: 1.67
Osteoblast [2]
  Ratio: 1.77
Osteoblast [3]
  Ratio: 1.04
Osteoblast [4]
  Ratio: 1.04
Osteoblast [5]
  Ratio: 3.75
Osteoblast [6]
  Ratio: 3.05
Osteoblast [7]
  Ratio: 2.02
Osteoblast [8]
  Ratio: 3.56
Osteoblast [9]
  Ratio: 1.51
Osteoblast [10]
  Ratio: 3.05
Osteoblast [11]
  Ratio: 1.91
Osteoblast [12]
  Ratio: 2.64
Osteoblast [13]
  Ratio: 3.75
Osteoblast [14]
  Ratio: 1.51
Osteoblast [15]
  Ratio: 3.39
Osteoblast [16]
  Ratio: 2.39
Osteoblast [17]
  Ratio: 2.64
